# Values of other authors in paper PMC3669347, “A Multi-System Approach Assessing the Interaction of Anticonvulsants with P-gp” (PLoS ONE, 2013).
# System: hOCT1
# Details: human brain endothelial cells; cited from earlier work
structure (smiles),measurement,value
Nc1nnc(-c2cccc(Cl)c2Cl)c(N)n1 [lamotrigine],Substrate for the influx transporter hOCT1,substrate
